The entries are a selection whose mix differs from that of the whole data set. Some results for these compounds are left out of this collection, so the calls shown say nothing about other tests. The source made the active and inactive calls.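 How the source made its calls: active means mean replicate activation of at least 60% and every replicate at or above 60%; inconclusive means mean or all-replicate condition met, but not both; inactive means mean below 60% and not all replicates reaching 60%.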
Experiment: activators of SR-BI mediated DiI-HDL uptake, primary screen, ldlA[mSR-BI] CHO cells, DiI fluorescence (AID 504775);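 further: 0% = median plate neutral-control signal and 100% = twice that signal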
Details: 3 h, at 12.5 µM, active compounds read high, 100 = double the neutral-control signal
In short: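 System: LDL receptor-deficient CHO ldlA cells overexpressing murine SR-BI | Timing: 3 h uptake period with compound, 37 °C | Medium: HEPES-buffered (25 mM, pH 7.4) F12 plus 0.5% BSA | Dosing: Single-point compound dose | Signal: Bottom-read fluorescence, 550/595 nm | Read-out: Retained DiI signal reflecting DiI-HDL uptake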
In the case of `COc1cccc(C(=O)NCC2(N3CCCCC3)CCCCC2)c1`, the activation is reported as inactive: 2.95%.
In the case of `COc1ccc(Cl)cc1C(=O)NCC1(N(C)C)CCCCC1`, the activation is reported as inactive: 0.252%.
With `COc1cc(C(=O)NCC2(N(C)C)CCCCC2)c([N+](=O)[O-])cc1OC` the activation was inactive: 6.86%.
With `CN(C)C1(CNC(=O)c2ccc(Br)cc2)CCCCC1` the activation was inactive: 54.8%.
With `CN(C)c1cccc(C(=O)NCC2(N(C)C)CCCCC2)c1` the activation was inactive: 36.6%.
In the case of `CC(C)Oc1ccc(C(=O)NCC2(N(C)C)CCCCC2)cc1`, the activation is reported as inactive: -7.08%.
With `O=C(OCCN1CCCC1)C(O)(c1ccccc1)c1ccccc1` the activation was inactive: -1.28%.
In the case of `O=C(OC1CN2CCC1CC2)C(CO)(c1ccccc1)c1ccccc1` (configuration not stated), the activation is reported as inactive: 29%.
In the case of `Cc1ccc(C(=O)NCC2(N3CCCCC3)CCCCC2)cc1`, the activation is reported as inactive: 18%.
With `CC(C)N1C(=O)CC2(CCN(CCOC(=O)C(O)(c3ccccc3)c3ccccc3)CC2)C1=O` the activation was inactive: 18.6%.
In the case of `CCN(CC)CC(C)C(C)OC(=O)C(O)(c1ccccc1)c1ccccc1` (configuration not stated), the activation is reported as inactive: 10.9%.
For `COc1cc(SC)ccc1C(=O)NCC1(N(C)C)CCCCC1`, the activation was inactive: 25.3%.
For `CN1[C@@H]2CC[C@H]1CC(OC(=O)C(O)(c1ccccc1)c1ccccc1)C2` (some centres not stated), the activation was inactive: 12.2%.
In the case of `O=C(NCC1(N2CCCCC2)CCCCC1)c1cc([N+](=O)[O-])ccc1Cl`, the activation is reported as inactive: 13.3%.
With `CCN1CCCC(OC(=O)C2(O)c3ccccc3C=Cc3ccccc32)C1` (configuration not stated) the activation was inactive: 37.4%.
For `Cc1cc(C(=O)NCC2(N3CCCCC3)CCCCC2)ccc1[N+](=O)[O-]`, the activation was inactive: -3.18%.
For `COc1ccc(C(=O)NCC2(N(C)C)CCCCC2)cc1`, the activation was inactive: 20.7%.
With `C=CCN1CCN(CCOC(=O)C(O)(c2ccccc2)c2ccccc2)CC1` the activation was inactive: 5.79%.
For `O=C(NCC1(N2CCCCC2)CCCCC1)c1cc(F)c(F)cc1Cl`, the activation was inactive: 0.523%.
In the case of `Cc1ccccc1C(=O)NCC1(N2CCCCC2)CCCCC1`, the activation is reported as inactive: 12.3%.
With `CN(C)c1ccc(C(=O)NCC2(N(C)C)CCCCC2)cc1` the activation was inactive: -10.3%.
In the case of `CN(C)C1CCCC1OC(=O)C(O)(c1ccccc1)c1ccccc1` (configuration not stated), the activation is reported as inactive: 9.34%.

From PubChem BioAssay AID504775 (Broad Institute, 2011)
